Earlier results, collected in US20140364449A1 (priority 2012, published 2014).
Some compounds may have been tested in ways that are not shown here.

Details: cited from earlier work

In the case of `CCC(=O)N(c1ccccc1)C1CCN(CCc2ccccc2)CC1`, the pKa value of the N-group is listed as 8.4.
